System: Indicator molecule containing the cleavable sequence GPQGIFGQ with a terminal biotin group connected via a polyethylene glycol spacer/linker (intact, Examples 1-6)

MMP13 (Enzo)
Reader value (lateral flow, CF1522-gold) with MMP at 0.5 ug/ml: 6350 reader units

Source: patent publication US20250157661
